# The list shows a part of the results, in another mix than the full data. Some results for these compounds are left out of this collection, so the calls shown say nothing about other tests. Calls of active or inactive are those of the source. No stated cut-off is given here; in the data, active means activation above about 50%; inactive means the rest.
# Protein sequences, listed by entry. Tags and fused reporters are not part of them.
# UniProt P0AE70, whole entry, looked up: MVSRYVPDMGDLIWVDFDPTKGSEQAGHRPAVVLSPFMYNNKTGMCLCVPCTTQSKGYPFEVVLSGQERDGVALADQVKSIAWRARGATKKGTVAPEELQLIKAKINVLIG
# Biological target: Endoribonuclease toxin MazF (Escherichia coli (strain K12)) (UniProt P0AE70)
# Experiment: activators of E. coli MazEF toxin-antitoxin RNase, primary screen, biochemical, fluorescence, uHTS (AID 504720)
# Conditions: FAM/BHQ RNA-DNA oligo cleavage fluorescence, 5 h, at 20 µM, hits give high values
row,Compound,activation
1,CC(C)N1C(=O)CC2(CCN(CCOC(=O)C(O)(c3ccccc3)c3ccccc3)CC2)C1=O,inactive: -0.451%
2,CCN(CC)CC(C)C(C)OC(=O)C(O)(c1ccccc1)c1ccccc1 (stereo unspecified),inactive: 8.28%
3,COc1cc(SC)ccc1C(=O)NCC1(N(C)C)CCCCC1,inactive: -8.43%
4,Cc1ccc(C(=O)NCC2(N3CCCCC3)CCCCC2)cc1,inactive: 9.04%
5,O=C(NCC1(N2CCCCC2)CCCCC1)c1cc([N+](=O)[O-])ccc1Cl,inactive: -4.36%
6,CN1[C@@H]2CC[C@H]1CC(OC(=O)C(O)(c1ccccc1)c1ccccc1)C2 (stereo partly specified),inactive: 1.67%
7,C=CCN1CCN(CCOC(=O)C(O)(c2ccccc2)c2ccccc2)CC1,inactive: -0.585%
8,O=C(NCC1(N2CCCCC2)CCCCC1)c1cc(F)c(F)cc1Cl,inactive: -1.03%
9,CCN1CCCC(OC(=O)C2(O)c3ccccc3C=Cc3ccccc32)C1 (stereo unspecified),inactive: 5.22%
10,Cc1cc(C(=O)NCC2(N3CCCCC3)CCCCC2)ccc1[N+](=O)[O-],inactive: 11.8%
11,O=C(NCC1(N2CCCCC2)CCCCC1)c1cccc(Br)c1,inactive: 8.91%
12,COc1ccc(C(=O)NCC2(N(C)C)CCCCC2)cc1,inactive: 5.08%
13,Cc1ccccc1C(=O)NCC1(N2CCCCC2)CCCCC1,inactive: 8.27%
14,CN(C)c1ccc(C(=O)NCC2(N(C)C)CCCCC2)cc1,inactive: 6.84%
15,CN(C)C1CCCC1OC(=O)C(O)(c1ccccc1)c1ccccc1 (stereo unspecified),inactive: 6.5%
16,COc1cccc(C(=O)NCC2(N3CCCCC3)CCCCC2)c1,inactive: 2.04%
17,COc1ccc(Cl)cc1C(=O)NCC1(N(C)C)CCCCC1,inactive: 5.18%
18,O=C(NCC1(N2CCCCC2)CCCCC1)c1cccc(Cl)c1,inactive: -8.32%
19,CN(C)C1(CNC(=O)c2ccc(Br)cc2)CCCCC1,inactive: -6.33%
20,COc1cc(C(=O)NCC2(N(C)C)CCCCC2)c([N+](=O)[O-])cc1OC,inactive: 11.6%
21,COc1ccc(Br)c(C(=O)NCC2(N3CCCCC3)CCCCC2)c1,inactive: -13.7%
22,C=C(C)C#CC(O)(C(=O)OC1CCN(C)CC1)c1ccccc1 (stereo unspecified),inactive: -9.79%
23,CN(C)c1cccc(C(=O)NCC2(N(C)C)CCCCC2)c1,inactive: 7.9%
24,CC(C)Oc1ccc(C(=O)NCC2(N(C)C)CCCCC2)cc1,inactive: 4.85%
25,O=C(OCCN1CCCC1)C(O)(c1ccccc1)c1ccccc1,inactive: 12.1%
26,O=C(OC1CN2CCC1CC2)C(CO)(c1ccccc1)c1ccccc1 (stereo unspecified),inactive: 10.9%

# Reference: PubChem BioAssay AID504720 (Sanford-Burnham Center for Chemical Genomics, 2011)
